Test results as given in ChEMBL document CHEMBL1130142, “(S)-spiro[(1,3-diazacyclopent-1-ene)-5,2'-(7'-methyl-1',2',3',4'- tetrahydronaphthalene)]: resolution, stereospecific synthesis, and preliminary pharmacological characterization as a partial alpha-adrenergic agonist” (J Med Chem, 1997).

Experiments:
[1] = C20 ratio was determined in the presence or absence of 0.1 mg of prazosin for the compound which are indicative of the contribution of alpha-1 adnergic mechanisms to the pressor response; type: functional
Outline: (§1)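 Pithed rats received test compound as cumulative iv doses, and mean arterial pressure was recorded. C20 is the iv dose (µg/kg) that raises arterial pressure by 20 mmHg (mean ± SEM, n = 5). The same cumulative doses were repeated 10 min after iv prazosin 100 µg/kg or iv yohimbine 1 mg/kg. The ratio is C20 without antagonist over C20 with antagonist.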

[2] = C20 ratio was determined in the presence or absence of 1 mg of yohimbine for the compound which are indicative of the contribution of alpha-2 adnergic mechanisms to the pressor response; type: functional; outline: as §1

Cc1ccc2c(c1)CC1(CC2)CN=CN1 (stereo unspecified)
Ratio [1]: 6.1
Ratio [2]: 7.9

Cc1ccc2c(c1)C[C@]1(CC2)CN=CN1
Ratio [1]: 20
Ratio [2]: 12

Cc1ccc2c(c1)C[C@@]1(CC2)CN=CN1
Ratio [1]: 6.5
Ratio [2]: 4.2
